What was measured:
[1] = target: Poly [ADP-ribose] polymerase 2 (Homo sapiens, UniProt Q9UGN5); experiment: Inhibition of GST-tagged human PARP2 at 1 uM incubated for 30 mins by chemiluminescence based UV/visible spectrophotometric analysis relative to control
HeLa [2] = experiment: Antitumor activity against human HeLa cells xenografted in female BALB/c nude mouse assessed as tumor suppression rate at 50 mg/kg, po administered via gavage once daily for 35 days relative to control; type: functional; conditions: time 35 day
[3] = Acute toxicity in Kunming mouse assessed as effect on heart weight at 500 to 2000 mg/kg, po administered as single dose for 14 days; type: organism-based; conditions: in vivo, 336 h, dose 500-2000 mg/kg, time 14 day
[4] = Toxicity in female BALB/c nude mouse xenografted with human SK-OV-3 cells assessed as effect on behavior at 25 to 50 mg/kg, po administered via gavage once daily for 31 days; type: organism-based; conditions: in vivo, 744 h, dose 25-50 mg/kg, time 31 day
[5] = Toxicity in female BALB/c nude mouse xenografted with human SK-OV-3 cells assessed as effect on body weight at 25 to 50 mg/kg, po administered via gavage once daily for 31 days; type: organism-based; conditions: in vivo, 744 h, dose 25-50 mg/kg, time 31 day
[6] = Acute toxicity in Kunming mouse assessed as effect on kidney weight at 500 to 2000 mg/kg, po administered as single dose for 14 days; type: organism-based; conditions: in vivo, 336 h, dose 500-2000 mg/kg, time 14 day
[7] = Acute toxicity in Kunming mouse assessed as effect on external signs at 500 to 2000 mg/kg, po administered as single dose for 14 days; type: organism-based; conditions: in vivo, 336 h, dose 500-2000 mg/kg, time 14 day
[8] = Acute toxicity in Kunming mouse assessed as effect on liver weight at 500 to 2000 mg/kg, po administered as single dose for 14 days; type: organism-based; conditions: in vivo, 336 h, dose 500-2000 mg/kg, time 14 day
[9] = Sub-acute toxicity in Kunming mouse assessed as effect on heart cellular morphology at 1000 mg/kg, po administered as repetitive dose for 14 days by H and E staining based analysis; type: organism-based; conditions: in vivo, 336 h, time 14 day
[10] = Sub-acute toxicity in Kunming mouse assessed as effect on behavior at 1000 mg/kg, po administered as repetitive dose for 14 days; type: organism-based; conditions: in vivo, 336 h, time 14 day
[11] = Acute toxicity in Kunming mouse assessed as effect on lung weight at 500 to 2000 mg/kg, po administered as single dose for 14 days; type: organism-based; conditions: in vivo, 336 h, dose 500-2000 mg/kg, time 14 day
[12] = Sub-acute toxicity in Kunming mouse assessed as effect on heart weight at 1000 mg/kg, po administered as repetitive dose for 14 days; type: organism-based; conditions: in vivo, 336 h, time 14 day
HeLa [13] = experiment: Antitumor activity against human HeLa cells xenografted in female BALB/c nude mouse assessed as tumor suppression rate at 25 mg/kg, po administered via gavage once daily for 35 days relative to control; type: functional; conditions: time 35 day
[14] = Sub-acute toxicity in Kunming mouse assessed as effect on spleen weight at 1000 mg/kg, po administered as repetitive dose for 14 days; type: organism-based; conditions: in vivo, 336 h, time 14 day
[15] = Sub-acute toxicity in Kunming mouse assessed as effect on body weight at 1000 mg/kg, po administered as repetitive dose for 14 days; type: organism-based; conditions: in vivo, 336 h, time 14 day
[16] = Sub-acute toxicity in Kunming mouse assessed as effect on spleen cellular morphology at 1000 mg/kg, po administered as repetitive dose for 14 days by H and E staining based analysis; type: organism-based; conditions: in vivo, 336 h, time 14 day
[17] = Sub-acute toxicity in Kunming mouse assessed as effect on spleen structure at 1000 mg/kg, po administered as repetitive dose for 14 days by H and E staining based analysis; type: organism-based; conditions: in vivo, 336 h, time 14 day
[18] = Sub-acute toxicity in Kunming mouse assessed as effect on lung weight at 1000 mg/kg, po administered as repetitive dose for 14 days; type: organism-based; conditions: in vivo, 336 h, time 14 day
[19] = Sub-acute toxicity in Kunming mouse assessed as effect on liver cellular morphology at 1000 mg/kg, po administered as repetitive dose for 14 days by H and E staining based analysis; type: organism-based; conditions: in vivo, 336 h, time 14 day
[20] = Sub-acute toxicity in Kunming mouse assessed as effect on external signs at 1000 mg/kg, po administered as repetitive dose for 14 days; type: organism-based; conditions: in vivo, 336 h, time 14 day
[21] = Sub-acute toxicity in Kunming mouse assessed as effect on liver structure at 1000 mg/kg, po administered as repetitive dose for 14 days by H and E staining based analysis; type: organism-based; conditions: in vivo, 336 h, time 14 day
[22] = Sub-acute toxicity in Kunming mouse assessed as effect on kidney structure at 1000 mg/kg, po administered as repetitive dose for 14 days by H and E staining based analysis; type: organism-based; conditions: in vivo, 336 h, time 14 day
[23] = Toxicity in female BALB/c nude mouse xenografted with human HeLa cells assessed as effect on body weight at 25 to 50 mg/kg, po administered via gavage once daily for 35 days; type: organism-based; conditions: in vivo, 840 h, dose 25-50 mg/kg, time 35 day
[24] = Acute toxicity in Kunming mouse assessed as effect on body weight at 500 to 2000 mg/kg, po administered as single dose for 14 days; type: organism-based; conditions: in vivo, 336 h, dose 500-2000 mg/kg, time 14 day
[25] = Toxicity in female BALB/c nude mouse xenografted with human SK-OV-3 cells assessed as effect on diet at 25 to 50 mg/kg, po administered via gavage once daily for 31 days; type: organism-based; conditions: in vivo, 744 h, dose 25-50 mg/kg, time 31 day
[26] = Acute toxicity in Kunming mouse assessed as change in behavior at 500 to 2000 mg/kg, po administered as single dose for 14 days; type: organism-based; conditions: in vivo, 336 h, dose 500-2000 mg/kg, time 14 day
[27] = Sub-acute toxicity in Kunming mouse assessed as effect on kidney weight at 1000 mg/kg, po administered as repetitive dose for 14 days; type: organism-based; conditions: in vivo, 336 h, time 14 day
[28] = Acute toxicity in Kunming mouse assessed as mortality at 500 to 2000 mg/kg, po administered as single dose for 14 days; type: organism-based; conditions: in vivo, 336 h, dose 500-2000 mg/kg, time 14 day
[29] = Sub-acute toxicity in Kunming mouse assessed as effect on lung structure at 1000 mg/kg, po administered as repetitive dose for 14 days by H and E staining based analysis; type: organism-based; conditions: in vivo, 336 h, time 14 day
[30] = Sub-acute toxicity in Kunming mouse assessed as effect on lung cellular morphology at 1000 mg/kg, po administered as repetitive dose for 14 days by H and E staining based analysis; type: organism-based; conditions: in vivo, 336 h, time 14 day
[31] = Sub-acute toxicity in Kunming mouse assessed as mortality at 1000 mg/kg, po administered as repetitive dose for 14 days; type: organism-based; conditions: in vivo, 336 h, time 14 day
[32] = Acute toxicity in Kunming mouse assessed as effect on spleen weight at 500 to 2000 mg/kg, po administered as single dose for 14 days; type: organism-based; conditions: in vivo, 336 h, dose 500-2000 mg/kg, time 14 day
[33] = Sub-acute toxicity in Kunming mouse assessed as effect on kidney cellular morphology at 1000 mg/kg, po administered as repetitive dose for 14 days by H and E staining based analysis; type: organism-based; conditions: in vivo, 336 h, time 14 day
[34] = Toxicity in nude mouse assessed as effect on body weight at 50 mg/kg, po; type: organism-based; conditions: in vivo
[35] = Sub-acute toxicity in Kunming mouse assessed as effect on liver weight at 1000 mg/kg, po administered as repetitive dose for 14 days; type: organism-based; conditions: in vivo, 336 h, time 14 day
[36] = Sub-acute toxicity in Kunming mouse assessed as effect on heart structure at 1000 mg/kg, po administered as repetitive dose for 14 days by H and E staining based analysis; type: organism-based; conditions: in vivo, 336 h, time 14 day
[37] = Selectivity index, ratio of IC50 for inhibition of recombinant human PARP-1 to IC50 for inhibition of recombinant mouse PARP-2

The chains behind the UniProt entries cited, without tags or fusion partners. Where a name states a change or a piece, a line headed by the entry shows the natural chain unless it says otherwise.
UniProt Q9UGN5: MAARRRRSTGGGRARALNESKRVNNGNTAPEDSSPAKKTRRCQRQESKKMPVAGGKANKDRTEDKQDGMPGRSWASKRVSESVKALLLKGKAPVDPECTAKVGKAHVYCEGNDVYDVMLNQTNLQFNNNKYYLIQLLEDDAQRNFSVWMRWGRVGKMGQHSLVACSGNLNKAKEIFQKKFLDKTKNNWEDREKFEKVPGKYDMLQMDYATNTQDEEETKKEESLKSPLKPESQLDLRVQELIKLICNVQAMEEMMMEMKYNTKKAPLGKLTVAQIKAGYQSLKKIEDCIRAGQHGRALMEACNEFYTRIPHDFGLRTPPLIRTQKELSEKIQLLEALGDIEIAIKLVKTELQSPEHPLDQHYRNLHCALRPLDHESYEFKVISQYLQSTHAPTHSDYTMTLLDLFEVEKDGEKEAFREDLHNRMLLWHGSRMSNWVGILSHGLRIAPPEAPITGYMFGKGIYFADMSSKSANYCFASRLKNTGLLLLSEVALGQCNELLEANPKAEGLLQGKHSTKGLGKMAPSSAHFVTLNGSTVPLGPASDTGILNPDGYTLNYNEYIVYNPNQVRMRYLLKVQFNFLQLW

COc1cc(-c2nc3c(C(N)=O)cccc3[nH]2)c(Br)c(Br)c1OCc1ccccc1C(F)(F)F
inhibition [1]: < 5%

COc1cc(-c2nc3c(C(N)=O)cccc3[nH]2)cc(Br)c1OC(=O)CCBr
inhibition [1]: 21.2%

COc1cc(-c2nc3c(C(N)=O)cccc3[nH]2)cc(Br)c1OS(=O)(=O)c1cccc2ccccc12
inhibition [1]: < 5%

CCCCOc1c(Br)cc(/C=N/NC(N)=S)cc1OC
inhibition [1]: < 5%

COc1cc(/C=N/NC(N)=S)cc(Br)c1OS(=O)(=O)C(F)(F)F
inhibition [1]: 18.4%

CCc1ccc(C(=O)Oc2c(OC)cc(-c3nc4c(C(N)=O)cccc4[nH]3)c(Br)c2Br)cc1
inhibition [1]: 26.7%

COc1cc(/C=N/NC(N)=S)ccc1OS(=O)(=O)C(F)(F)F
inhibition [1]: 17.1%

COc1cc(-c2nc3c(C(N)=O)cccc3[nH]2)c(Br)c(Br)c1OS(=O)(=O)c1ccc(F)c(Cl)c1
inhibition [1]: < 5%

COc1cc(/C=N/NC(N)=S)c(Br)c(Br)c1OC(=O)c1ccco1
inhibition [1]: 7.35%

COc1cc(-c2nc3c(C(N)=O)cccc3[nH]2)ccc1OC(=O)c1ccccc1C(F)(F)F
inhibition [1]: 38.4%

COc1ccc(S(=O)(=O)Oc2c(Br)cc(-c3nc4c(C(N)=O)cccc4[nH]3)cc2OC)cc1
inhibition [1]: 46.8%

COc1cc(/C=N/NC(N)=S)c(Br)c(Br)c1OCc1ccc(Br)cc1
inhibition [1]: 35.3%

COc1cc(-c2nc3c(C(N)=O)cccc3[nH]2)ccc1OS(=O)(=O)c1c(C)cc(C)cc1C
inhibition [1]: 45.2%

COc1cc(-c2nc3c(C(N)=O)cccc3[nH]2)c(Br)c(Br)c1OC
inhibition [1]: 38.8%

COc1cc(-c2nc3c(C(N)=O)cccc3[nH]2)ccc1OS(=O)(=O)c1cccc(Br)c1
inhibition [1]: 47.5%

COc1cc(-c2nc3c(C(N)=O)cccc3[nH]2)c(Br)c(Br)c1OS(=O)(=O)c1ccc(C)cc1
inhibition [1]: < 5%

COc1cc(-c2nc3c(C(N)=O)cccc3[nH]2)c(Br)c(Br)c1OS(=O)(=O)c1ccc(NC(C)=O)cc1
inhibition [1]: 13.4%

COc1cc(-c2nc3c(C(N)=O)cccc3[nH]2)cc(Br)c1OC(=O)C(C)(C)C
inhibition [1]: 38.4%

CCCS(=O)(=O)Oc1c(OC)cc(/C=N/NC(N)=S)c(Br)c1Br
inhibition [1]: 23.8%

COc1cc(-c2nc3c(C(N)=O)cccc3[nH]2)cc(Br)c1OS(=O)(=O)c1ccccc1C
Activity (HeLa [2]): 76.55%
Activity [3]: Non-Toxic
Activity [4]: Non-Toxic
Activity [5]: Non-Toxic
Activity [6]: Non-Toxic
Activity [7]: Non-Toxic
Activity [8]: Non-Toxic
Activity [9]: Non-Toxic
Activity [10]: Non-Toxic
Activity [11]: Non-Toxic
Activity [12]: Non-Toxic
Activity (HeLa [13]): 69.86%
Activity [14]: Non-Toxic
inhibition [1]: 21.9%
Activity [15]: Non-Toxic
Activity [16]: Non-Toxic
Activity [17]: Non-Toxic
Activity [18]: Non-Toxic
Activity [19]: Non-Toxic
Activity [20]: Non-Toxic
Activity [21]: Non-Toxic
Activity [22]: Non-Toxic
Activity [23]: Non-Toxic
Activity [24]: Non-Toxic
Activity [25]: Non-Toxic
Activity [26]: Non-Toxic
Activity [27]: Non-Toxic
Activity [28]: Non-Toxic
Activity [29]: Non-Toxic
Activity [30]: Non-Toxic
Activity [31]: Non-Toxic
Activity [32]: Non-Toxic
Activity [33]: Non-Toxic
Activity [34]: Non-Toxic
Activity [35]: Non-Toxic
Activity [36]: Non-Toxic

COc1cc(-c2nc3c(C(N)=O)cccc3[nH]2)c(Br)c(Br)c1OCc1ccc(Br)cc1
inhibition [1]: 5.35%

COc1cc(/C=N/NC(N)=S)c(Br)c(Br)c1OCc1ccc(C)cc1
inhibition [1]: 13.9%

COc1cc(/C=N/NC(N)=S)ccc1OS(=O)(=O)c1c(C)cc(C)cc1C
inhibition [1]: 46.7%

Cn1cccc1/C=C1\C(=O)NC(=O)c2ccccc21
Ratio IC50 [37]: 100

COc1cc(-c2nc3c(C(N)=O)cccc3[nH]2)c(Br)c(Br)c1OC(=O)c1ccc(F)cc1
inhibition [1]: 46.8%

COc1cc(/C=N/NC(N)=S)c(Br)c(Br)c1OC(=O)c1ccc(CCl)cc1
inhibition [1]: 15.5%

CCCS(=O)(=O)Oc1c(Br)cc(-c2nc3c(C(N)=O)cccc3[nH]2)cc1OC
inhibition [1]: 58.2%

COc1cc(-c2nc3c(C(N)=O)cccc3[nH]2)cc(Br)c1OS(=O)(=O)c1c(C)cc(C)cc1C
inhibition [1]: 27.1%

COc1cc(-c2nc3c(C(N)=O)cccc3[nH]2)ccc1OS(=O)(=O)c1ccc(Br)cc1
inhibition [1]: 48.5%

COc1cc(/C=N/NC(N)=S)cc(Br)c1OC(=O)C(C)(C)C
inhibition [1]: < 5%

COc1cc(/C=N/NC(N)=S)cc(Br)c1OC(C)=O
inhibition [1]: < 5%

COc1cc(-c2nc3c(C(N)=O)cccc3[nH]2)c(Br)c(Br)c1OC(=O)CCBr
inhibition [1]: 57.8%

COc1cc(-c2nc3c(C(N)=O)cccc3[nH]2)cc(Br)c1OS(=O)(=O)c1cccc(Br)c1
inhibition [1]: < 5%

COc1cc(-c2nc3c(C(N)=O)cccc3[nH]2)c(Br)c(Br)c1OS(=O)(=O)c1ccc(OC(F)(F)F)cc1
inhibition [1]: < 5%

COc1cc(-c2nc3c(C(N)=O)cccc3[nH]2)c(Br)c(Br)c1OC(C)=O
inhibition [1]: 31.2%

COc1cc(-c2nc3c(C(N)=O)cccc3[nH]2)cc(Br)c1OS(=O)(=O)c1ccc(I)cc1
inhibition [1]: < 5%

COc1cc(/C=N/NC(N)=S)c(Br)c(Br)c1OC(=O)c1ccc(Br)cc1
inhibition [1]: 17.6%

From ChEMBL document CHEMBL5512675, “Design of Selective PARP-1 Inhibitors and Antitumor Studies” (J Med Chem, 2024)
